Reference: ChEMBL document CHEMBL5500414 (J Med Chem, 2024)

What was measured:
Format in all cases: functional, cell-based
Conditions in all cases: dose 0.03-3 µM
MV4-11 [1] = experiment: Induction of apoptosis in BFL-1 overexpressing isogenic human MV4-11 cells assessed as increase in cleaved PARP level at 0.03 to 3 uM in presence of doxycycline by Western blot analysis
MV4-11 [2] = experiment: Induction of apoptosis in BFL-1 overexpressing isogenic human MV4-11 cells assessed as increase in cytochrome c release in mitochondria at 0.03 to 3 uM in presence of doxycycline by Western blot analysis
MOLM-13 [3] = experiment: Induction of apoptosis in BFL-1 overexpressing isogenic human MOLM-13 cells assessed as increase in cleaved PARP level at 0.03 to 3 uM in presence of doxycycline by Western blot analysis
MOLM-13 [4] = experiment: Induction of apoptosis in BFL-1 overexpressing isogenic human MOLM-13 cells assessed as increase in cytochrome c release in mitochondria at 0.03 to 3 uM in presence of doxycycline by Western blot analysis

Measured: Activity

CC1(C)CCC(CN2CCN(c3ccc(C(=O)NS(=O)(=O)c4ccc(NCC5CCOCC5)c([N+](=O)[O-])c4)c(Oc4cnc5[nH]ccc5c4)c3)CC2)=C(c2ccc(Cl)cc2)C1 [VENETOCLAX]
inactive: all assays above

Active and inactive are the calls of the source.
